Changes are numbered by the printed parent chain. In names and notes the source's numbering stands.
B1: Recombinant NAE, wild type (NAE1 / tagged NAEβ), as used in the pyrophosphate exchange and transthiolation assays (protein)
chain 1: AQLGKLLKEQKYDRQLRLWGDHGQEALESAHVCLINATATGTEILKNLVLPGIGSFTIIDGNQVSGEDAGNNFFLQRSSIGKNRAEAAMEFLQELNSDVSGSFVEESPENLLDNDPSFFCRFTVVVATQLPESTSLRLADVLWNSQIPLLICRTYGLVGYMRIIIKEHPVIESHPDNALEDLRLDKPFPELREHFQSYDLDHMEKKDHSHTPWIVIIAKYLAQWYSETNGRIPKTYKEKEDFRDLIRQGILKNENGAPEDEENFEEAIKNVNTALNTTQIPSSIEDIFNDDRCINITKQTPSFWILARALKEFVAKEGQGNLPVRGTIPDMIADSGKYIKLQNVYREKAKKDAAAVGNHVAKLLQSIGQAPESISEKELKLLCSNSAFLRVVRCRSLAEEYGLDTINKDEIISSMDNPDNEIVLYLMLRAVDRFHKQQGRYPGVSNYQVEEDIGKLKSCLTGFLQEYGLSVMVKDDYVHEFCRYGAAEPHTIAAFLGGAAAQEVIKIITKQFVIFNNTYIYSGMSQTSATFQL
chain 2: ADGEEPEKKRRRIEELLAEKMAVDGGCGDTGDWEGRWNHVKKFLERSGPFTHPDFEPSTESLQFLLDTCKVLVIGAGGLGCELLKNLALSGFRQIHVIDMDTIDVSNLNRQFLFRPKDIGRPKAEVAAEFLNDRVPNCNVVPHFNKIQDFNDTFYRQFHIIVCGLDSIIARRWINGMLISLLNYEDGVLDPSSIVPLIDGGTEGFKGNARVILPGMTACIECTLELYPPQVNFPMCTIASMPRLPEHCIEYVRMLQWPKEQPFGEGVPLDGDDPEHIQWIFQKSLERASQYNIRGVTYRLTQGVVKRIIPAVASTNAVIAAVCATEVFKIATSAYIPLNNYLVFNDVDGLYTYTFEAERKENCPACSQLPQNIQFSPSAKLQEVLDYLTNSASLQMKSPAITATLEGKNRTLYLQSVTSIEERTRPNLSKTLKELGLVDGQELAVADVTTPQTVLFKLHFTS
B2: Recombinant NAE with NAEβ N209K, as used in the pyrophosphate exchange and transthiolation assays (protein)
chain 1: B1 chain 1
chain 2: B1 chain 2 with N208K
B3: Recombinant NAE with NAEβ E204K, as used in the pyrophosphate exchange and transthiolation assays (protein)
chain 1: B1 chain 1
chain 2: B1 chain 2 with E203K
B4: Recombinant NAE with NAEβ A171D, as used in the pyrophosphate exchange assay (protein)
chain 1: B1 chain 1
chain 2: B1 chain 2 with A170D
B5: Recombinant NAE with NAEβ A171T, as used in the pyrophosphate exchange and transthiolation assays (protein)
chain 1: B1 chain 1
chain 2: B1 chain 2 with A170T
B6: Recombinant NAE with NAEβ G201V, as used in the pyrophosphate exchange and transthiolation assays (protein)
chain 1: B1 chain 1
chain 2: B1 chain 2 with G200V

By UniProt entry, the sequences of proteins in these tests, tags left out.
NEDD8 (Neural precursor cell-Expressed Developmentally Downregulated 8), Q15843, UniProt Q15843, whole entry, looked up: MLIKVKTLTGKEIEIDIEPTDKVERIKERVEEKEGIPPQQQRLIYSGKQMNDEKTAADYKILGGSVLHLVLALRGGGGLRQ

These proteins were tested against NEDD8 (Neural precursor cell-Expressed Developmentally Downregulated 8), Q15843.
B1 was tested, and the KM NEDD8 (pyrophosphate exchange assay) was 0.044 µM.
Work on B2 yielded a KM NEDD8 (pyrophosphate exchange assay) of 0.43 µM.
Protein B3 has a KM NEDD8 (pyrophosphate exchange assay) of 0.48 µM.
With B4 the KM NEDD8 (pyrophosphate exchange assay) was 0.016 µM.
B5 gave a KM NEDD8 (pyrophosphate exchange assay) of 0.08 µM.
B6 gave a KM NEDD8 (pyrophosphate exchange assay) of 3.5 µM.
